This note sets out measurements from PMC6954720, “Discovery of retinoic acid receptor agonists as proliferators of cardiac progenitor cells through a phenotypic screening approach” (Stem Cells Translational Medicine, 2019).

The chains behind the UniProt entries cited, without tags or fusion partners. Residues count along the entry.
UniProt P10826, 183-417 limits assumed: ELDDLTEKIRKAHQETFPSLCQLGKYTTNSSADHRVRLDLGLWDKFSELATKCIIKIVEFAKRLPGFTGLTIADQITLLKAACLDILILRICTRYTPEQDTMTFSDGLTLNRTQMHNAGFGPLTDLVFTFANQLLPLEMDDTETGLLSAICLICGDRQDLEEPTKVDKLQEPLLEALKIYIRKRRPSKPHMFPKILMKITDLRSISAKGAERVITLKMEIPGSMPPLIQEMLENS

This assay deals with RARB (beta) ligand binding domain (Homo sapiens, UniProt P10826). Description: RAR LBD-SRC1-2 coactivator peptide recruitment assay, agonist format, RARB. In kind it is biochemical. The method, then:
RAR ligand binding domain (LBD)‐SRC1‐2 coactivator peptide (NCOA1_677‐700 biotinylated) recruitment assays were established for the three RAR isotypes RARA (alpha), RARB (beta), and RARG (gamma) to determine relative potencies. […] A total of 0.4 μL of a fixed concentration range of test ligands dissolved in dimethyl sulphoxide (DMSO) was added to assay plates using an acoustic liquid dispenser. […] The raw data were transformed to % effect using the equation: compound % effect = 100 × [(X − min)/(max − min)], where X represents the effect in the presence of test compound and max and min are the effects in presence of the maximum and minimum controls, respectively.
The data were plotted to generate concentration‐response profiles and the concentration‐response curves were fit to the data using the four‐parameter logistic smart fit method in the Genedata Screener software (Genedata, Inc).

Structures are written as SMILES.

On to `CC1=C(/C=C/C(C)=C/C=C/C(C)=C/C(=O)O)C(C)(C)CCC1` [ATRA, all‐trans retinoic acid], for which the “maximal effect (% top effect)” value was determined as 104%.
